The list shows a part of the results, in another mix than the full data. Calls of active or inactive are those of the source.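 The calls were made as follows: active = viability loss from added drug above about 55%, and viability with drug at most 40%, in both replicates (limit read from the data, passing the limit was not always enough); inconclusive = both conditions met in only one replicate; inactive = neither replicate meets both conditions.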
Experiment: MRP1 drug-resistance reversers in H69AR cells – cell-based, doxorubicin co-treatment, pilot screen (AID 601)
Conditions: H69AR cells + 2 uM doxorubicin, CellTiter-Glo, 72 h; at 10 µM; stronger effect = higher value
For CCOP1(=S)c2c(C)nn(CCC#N)c2N=C(c2ccccc2F)N1C (stereo not given), the differential viability (reversal) was inactive: -0.26%. For Cc1nn(-c2ccccc2)c2c1P(=O)(N1CCOCC1)N(C)C(c1ccccc1)=N2 (stereo not given), the differential viability (reversal) was inactive: -6.58%. In the case of O=C(COc1ccccc1)OC1CN2CCC1CC2 (stereo not given), the differential viability (reversal) is reported as inactive: 8.71%. In the case of COP1(=S)c2c(C)nn(CCC#N)c2N=C(c2ccc(F)cc2)N1C (stereo not given), the differential viability (reversal) is reported as inactive: -4.32%. For O=P(Nc1nccs1)(c1ccccc1)c1ccccc1, the differential viability (reversal) was inactive: 11%.

— PubChem BioAssay AID601 (SRMLSC, 2007)
